This experiment has as its target Beta Secretase enzyme (BACE) (Homo sapiens, UniProt P56817). Briefly: In vitro enzymatic BACE FRET (fluorescence resonance energy transfer) assay. The settings on record: average IC50, enzyme assay; read-out: BACE 1 FRET assay. It counts as biochemical.

Chains of the proteins cited; added tags and fusions are not shown. Residues count along the entry.
UniProt P56817, 46-501, species assumed: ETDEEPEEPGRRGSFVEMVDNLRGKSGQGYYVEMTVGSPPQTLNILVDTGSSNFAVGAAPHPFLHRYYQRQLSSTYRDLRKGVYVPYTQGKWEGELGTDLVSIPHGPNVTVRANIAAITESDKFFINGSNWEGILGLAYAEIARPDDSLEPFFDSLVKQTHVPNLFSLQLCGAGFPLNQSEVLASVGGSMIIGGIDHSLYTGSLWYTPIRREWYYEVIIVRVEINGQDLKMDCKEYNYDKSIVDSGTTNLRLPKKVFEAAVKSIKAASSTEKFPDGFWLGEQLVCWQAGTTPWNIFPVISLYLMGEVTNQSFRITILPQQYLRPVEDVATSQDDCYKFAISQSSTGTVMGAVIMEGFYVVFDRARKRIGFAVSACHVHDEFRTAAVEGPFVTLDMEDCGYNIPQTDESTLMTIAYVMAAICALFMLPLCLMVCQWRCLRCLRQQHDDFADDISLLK

For “2′-amino-9-fluoro-7-((3-methyl-3-oxetanyl)ethynyl)spiro[chromeno[2,3-c]pyridine-5,4′-[1,3]oxazol]-3-yl)benzonitrile [Example 694]”, the IC50 is 0.0175 µM.

For the origin of these results see patent US8883782B2, “Spiro-tetracyclic ring compounds as beta-secretase modulators and methods of use” (Amgen Inc., priority 2010, dated 2014).
